For one data set, the system named is non-transformed cells. The following applies: data not shown.
A short description of the next data set: in vitro. The following applies: rat, microsomes, pH 7.4.
For data set [1] the following is noted: well-stirred model, from rat microsomal CLint.

As usually defined, the CLint scaled is the capacity of the preparation to metabolise the compound, expressed as a volume cleared per time. Low readings indicate greater metabolic stability, high ones faster metabolism. On to `O=C(NCCN1CCC2(CC1)C(=O)NCN2c1cccc(F)c1)c1ccc2ccccc2c1` [22a, N-(2-(1-(3-fluorophenyl)-4-oxo-1,3,8-triazaspiro[4.5]decan-8-yl)ethyl)-2-naphthamide], for which, in the data set on non-transformed cells, the cytotoxicity entry is on record as “significantly less cytotoxic”. The molecule also returned a CLint scaled at 1 µM in “in vitro” of 203 mL/min/kg. Also, in data set [1], the “predicted hepatic clearance (CLhep)” value is 52 mL/min/kg.
